System: maize transgenic T0 events expressing Axmi309H-Evo41
Type: in vivo
Settings: 100 g AI/ha
Experimental: Regenerated T0 events from tissue culture were transplanted into two inch square pots with synthetic soil (Fafard® Mix) and controlled-released fertilizer (Haifa Multicote™; polymer-coated controlled-release fertilizer, NPK Pro 18-6-12+Micronutrients) and cultivated in the greenhouse (GH) under supplementary high pressure sodium light for 12 days at a maximum of 30° C. during the day and a minimum of 22° C. at night. Fully recovered plants were transferred into five inch square pots filled with synthetic soil and control released fertilizer under the same environmental conditions. […] All herbicide treatments were conducted in a DeVries Tracker Sprayer system with standard application protocols, which are well known in the art. As a spray control T0 events have been sprayed with the adjunvant mixture lacking the herbicide. […]

Question: Which “share of tested events with acceptable resistance (15% or less bleached leaf area)” value does the source give for `CSc1c(C(F)(F)F)ccc(C(=O)Nc2nnnn2C)c1Cl` here?
Answer: 60%
